Laboratory results published in publication PMC7988488 (The Journal of Biological Chemistry, 2021).

System: RBL-2H3 cells
Test: β-Hexosaminidase release from RBL-2H3 cells
Format: cell-based
Conditions: HNTX-III analogues at 180 μg/ml, 0.5 h, 37 °C, absorbance 405 nm, control 1.13 ± 0.59, C48/80 positive drug, concentration not given, mean ± SD, n = 3 to 6
Procedure: β-Hexosaminidase release was performed as described ([61]). RBL-2H3 cells were cultured in Dulbecco’s modified Eagle’s medium containing 10% fetal bovine serum in a humidified atmosphere of 5% CO2 at 37 °C. RBL-2H3 cells (2 × 10^5/cell) were washed three times with prewarmed Tyrode’s buffer and pretreated with HNTX-III analogues at 180 μg/ml for 0.5 h at 37 °C in 5% CO2. To determine the total amount of β-hexosaminidase released, Tyrode’s buffer containing 1% (v/v) Triton X-100 was added to three or four wells. […] The enzyme reaction was stopped by the addition of 0.2 M glycine buffer (pH 10.7), and the reaction product was measured at 405 nm. The percentage of degranulation was calculated using the following formula: % β-hexosaminidase release =(absorbance supernatant−absorbance vehicle)/(absorbance Triton X-100−absorbance vehicle)×100

For Hainantoxin-III [Compound 1], the “Releasing rate of β-hexosaminidase (%)” value was 1.68 ± 0.76%.
